Ab-14 light chain CDR variants: yeast mating affinities

From the AlphaSeq antibody data of Engelhart et al. 2022 (doi:10.1038/s41597-022-01779-4), copy in the FLAb collection.

Binding partner: SARS-CoV-2 spike HR2 peptide, sequence PDVDLGDISGINAS.

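Variants in AAYL50 differ from the parent at up to three CDR positions; double and triple changes were sampled at random. The scFvs were displayed on barcoded MATa yeast, the peptide on MATalpha yeast. Mating (16 h, 30 °C) was followed by selection of diploids and sequencing of their barcodes. Read counts were normalised to the haploid input and turned into Kd by a linear fit to BCL2-family pairs of known affinity, for each replicate. There are three technical replicates.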

The variants keep the heavy chain, the linker and the frameworks of Ab-14 (scFv order VH, a (GGGGS)3 linker, VL).
VH: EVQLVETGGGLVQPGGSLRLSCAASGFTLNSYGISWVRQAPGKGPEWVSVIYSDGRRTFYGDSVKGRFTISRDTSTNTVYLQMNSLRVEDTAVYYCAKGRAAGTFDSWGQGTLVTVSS
VL: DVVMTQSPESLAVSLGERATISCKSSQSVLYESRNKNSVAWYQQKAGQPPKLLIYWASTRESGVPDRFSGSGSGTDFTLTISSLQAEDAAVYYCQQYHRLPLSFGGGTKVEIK

Variants are written as CDR1, CDR2 and CDR3 of the light chain (limits as in the source). Parent: KSSQSVLYESRNKNSVA, WASTRES, QQYHRLPLS. Scale: log10 of Kd in nM, estimated from mating counts; low values are strong binders. Where no diploid with the target was found in that replicate, the entry reads "n.d.": below detection, most likely a poor binder, though not proof of it. Parent in this assay: reference entry 0.65, copy in this library 1.68.

CDR-L1	CDR-L2	CDR-L3	log10 Kd (nM) by replicate	empty controls
KSSQSVLYESRNKNSVA	WASTRES	QQYNRLPLS	0.55 0.78 0.78	4/9 (5.30)
KSSQSVLYESRNKNSVA	WASYRES	QQYHRLPLS	1.18 1.34 1.41	1/9 (3.65)
KSSQSVLYISRNKNSVA	WASTRES	QQYHRCPLF	n.d. n.d. n.d.	0/9
KSSQSVLYESRNYNSVA	WASTRES	QQQHRLPLS	n.d. n.d. n.d.	1/9 (3.36)
KSSQSVLYETREKNTVA	WASTRES	QQYHRLPLS	2.86 2.89 3.52	1/9 (3.93)
KSSQSVLYESRNKNSVA	PASTREG	QQYHRLPLA	n.d. n.d. n.d.	1/9 (3.01)
KSSQSVLFESRNKYSVA	WASTREF	QQYHRLPLS	n.d. n.d. n.d.	0/9
KSSQSSLYESRNKNSVA	WASTRES	QCYHILPLS	2.87 2.79 3.20	3/9 (5.17)
KSSQSGLYESRNKNSVA	WASTRGS	QQYHRLPPS	1.00 0.90 1.24	0/9
KSSQSVLYESRNKNSVA	WAITREC	QQYHRLMLS	n.d. n.d. n.d.	0/9
KSSQSVLCESRNKNSVA	WASTRES	QQYHRIPFS	n.d. n.d. n.d.	0/9
KSSQSVLYESRNKNSVA	LASHRES	QQYHRLPLS	1.79 1.92 1.84	6/9 (4.15)
KSSNSVLYISRNKNSVA	WASTREF	QQYHRLPLS	5.66 n.d. 4.83	2/9 (3.96)
KSSQSVLYESRNKNRVA	PASTRES	QQYTRLPLS	n.d. 3.83 5.96	8/9 (4.79)
NSSMSVLYESRNKNSVA	EASTRES	QQYHRLPLS	n.d. 3.60 n.d.	4/9 (3.53)
KASQSVLYESRNKNSVA	WASTREA	QQYHRLELS	1.75 1.81 1.89	0/9
KSSQSVLYESRNGNSVA	WASTRES	GQYHRLPLS	1.30 1.46 1.30	4/9 (3.77)
KSSQSVLYESRNYNSTA	WASTRES	NQYHRLPLS	n.d. n.d. n.d.	1/9 (3.97)
KSSQSVLYIDWNKNSVA	WASTRES	QQYHRLPLS	3.10 3.76 3.12	3/9 (3.93)
KSSQSVLDESCNKNSVA	WASTREW	QQYHRLPLS	0.65 0.98 0.80	2/9 (4.06)
KSSQSVLYESRNKNSMA	WASRRES	QQYHRLPGS	n.d. n.d. n.d.	1/9 (3.64)
KSSQSVLYESRSKNSAA	WASTRES	QQYHHLPLS	n.d. n.d. n.d.	1/9 (3.06)
KPSQSVQYESRNKNSVA	WASTDES	QQYHRLPLS	n.d. n.d. n.d.	1/9 (3.20)
KSSQSVLYESVNKNSVA	WASTRES	QQWHPLPLS	0.62 0.91 0.70	0/9
YTSQSVLYESRNANSVA	WASTRES	QQYHRLPLS	n.d. n.d. n.d.	1/9 (4.43)
KYSQSVLGESVNKNSVA	WASTRES	QQYHRLPLS	-0.35 0.02 -0.11	0/9
KSSTSVLYESHNKNSVA	WAGTRES	QQYHRLPLS	1.44 1.51 1.41	2/9 (3.76)
KSSQSVLYESRNKNSVA	TASGRES	QQYHRLLLS	3.70 3.95 n.d.	0/9
KSSQSVLYESFNKNSVA	WASTRES	QQYERLPMS	1.24 1.36 1.49	1/9 (3.67)
KSSQSVLYESRNKNSVA	WVSHRES	QQYHRLPIS	2.24 4.17 n.d.	2/9 (3.80)
KSSQSVLYESRNKNSEA	WASTRES	QQYERNPLS	4.18 n.d. 3.66	2/9 (3.68)
KSSQSVLYESRNKNSFA	WLSTRRS	QQYHRLPLS	n.d. n.d. n.d.	0/9
KSSQSVLYESRNKNSAA	WYSTRES	QQYHRLPYS	5.87 3.69 n.d.	1/9 (3.76)
NSSQSVLIESRNKNSVA	WASTRES	QQYHRLPLE	2.15 2.17 1.92	1/9 (5.40)
KSSQSVNYESRNKDSAA	WASTRES	QQYHRLPLS	n.d. n.d. n.d.	0/9
KSSQSVLYESQNKNSVA	WASTRES	QQYHRWHLS	1.89 1.88 1.71	5/9 (4.73)
KSSQSMGYESRNKNSLA	WASTRES	QQYHRLPLS	0.93 1.20 1.10	2/9 (3.65)
KSSQSVLKESRWKNSVA	WASTRES	CQYHRLPLS	4.08 n.d. 5.41	2/9 (4.13)
KSSQSVNYEPRNKNSPA	WASTRES	QQYHRLPLS	n.d. n.d. n.d.	0/9
KSSQSVLYESRNKNSVA	WASTRES	QMGHHLPLS	n.d. n.d. n.d.	2/9 (3.79)
KNSFSVLGESRNKNSVA	WASTRES	QQYHRLPLS	0.51 0.64 0.68	3/9 (4.44)
KSSQSLLYESRNKNSVA	WASTRES	QQHCRLPLS	0.63 0.84 0.78	3/9 (4.54)
WSSFSVLYESRNKNSSA	WASTRES	QQYHRLPLS	4.29 3.91 n.d.	5/9 (4.22)
KRSQSVLYESRNKNSVA	MASTRES	QQYHPLPLS	0.98 0.90 1.08	2/9 (3.36)

Top 7 of the variants detected in all replicates, tightest first:

CDR-L1,CDR-L2,CDR-L3,log10 Kd (nM) by replicate,empty controls
KYSQSVLGESVNKNSVA,WASTRES,QQYHRLPLS,-0.35 0.02 -0.11,0/9
KNSFSVLGESRNKNSVA,WASTRES,QQYHRLPLS,0.51 0.64 0.68,3/9 (4.44)
KSSQSVLYESRNKNSVA,WASTRES,QQYNRLPLS,0.55 0.78 0.78,4/9 (5.30)
KSSQSVLYESVNKNSVA,WASTRES,QQWHPLPLS,0.62 0.91 0.70,0/9
KSSQSLLYESRNKNSVA,WASTRES,QQHCRLPLS,0.63 0.84 0.78,3/9 (4.54)
KSSQSVLDESCNKNSVA,WASTREW,QQYHRLPLS,0.65 0.98 0.80,2/9 (4.06)
KRSQSVLYESRNKNSVA,MASTRES,QQYHPLPLS,0.98 0.90 1.08,2/9 (3.36)

Background: pairings of library AAYL50 with three empty control strains gave a value in 18% of cases (median 4.19, 5th percentile 2.99). Values in that range, when seen in few replicates, are hard to tell from nonspecific mating. The control count says in how many pairings with the empty strains this scFv gave a signal, with their mean in brackets.